Screening results deposited in PubChem BioAssay by Broad Institute.
UUG fidelity – modulators of yeast start codon fidelity, primary screen, whole organism, S. cerevisiae, single point, plate reader. S. cerevisiae UUG-firefly luciferase reporter, luminescence/redox ratio. activity score, % at 18.7 µM. actives 0.13% (n = 350,000);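 active = replicate mean at a twofold rise or more, about +100% in these data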;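 note: firefly luciferase made from a UUG start codon reports start codon fidelity; reporter light over untreated wells divided by growth signal over untreated wells; some hits fall short of that in this replicate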
EWS-Fli inh – EWS/Fli-driven NR0B1 reporter inhibitors, primary screen, A673 cells, NR0B1 luciferase, luminescence, MLPCN library; 0.67% of 350,000 active; viability-normalised; inhibition, % at 12.6 µM;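 active = mean inhibition of at least 50% after viability correction, with every replicate also passing that limit; inconclusive = mean reaches 50% but only one of two replicates passes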;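 note: firefly luciferase signal divided by Alamar Blue viability fluorescence both relative to DMSO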
PglD inh – C. jejuni PglD acetyltransferase inhibitors, primary screen, biochemical, DTNB colorimetric, single point | UDP-N-acetylbacillosamine N-acetyltransferase PglD (Campylobacter jejuni) | purified PglD enzyme, DTNB colorimetric CoA detection | inhibition, % at 12.5 µM | 0.098% of 360,000 active | AID 602405, 2012; in the data active = inhibition above about 16%, passing the limit was not always enough; inconclusive = no clear call, values can overlap the other calls
F508del corr – F508del CFTR correction, initial screen, CFBE line, single point | CFBE cells, YFP halide quenching; stimulated with forskolin plus potentiator P3; % fluorescence drop versus neutral controls | AID 720511, 2013 | 0.36% of 350,000 active | activity (quench increase), % at 7.58 µM;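 active = mean added fluorescence quench of at least 8% versus neutral control, with both replicates also reaching 8%; inconclusive = only one of the mean or replicate conditions met; inactive = mean below 8% and not both replicates reaching 8%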;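 note: cells transiently co-express mutant CFTR-F508del with the halide-sensitive YFP; corrector assay measuring rescue of mutant channel to the surface after 24 h compound exposure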
LGR2 inh – inhibitors of bursicon-induced LGR2 CRE-luciferase signal, primary screen, cell-based, HEK293, CRE-luciferase reporter, bursicon stimulation; Drosophila bursicon receptor LGR2 (rickets); bursicon-stimulated, 4 h; inhibition, % at 9.99 µM; 0.35% of 380,000 active; AID 720647, 2013;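 active = drop in luminescence signal, shown as inhibition above about 50% in the replicate tests, limit read from the data, passing the limit was not always enough; inconclusive = probably only some replicates passing the limit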;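 note: agonist challenge used bursicon conditioned medium at about half maximal strength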
miR122 inh – miR-122 Renilla sensor signal increase in Huh7, primary screen, miR-122 inhibitor project, cell-based, single point, plate reader. Huh7 miR-122 Renilla luciferase sensor, 48 h; neutral wells = 0, positive control = 100. activation (reporter increase), % at 12.5 µM. 0.3% of 340,000 active. AID 602342, 2012;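 active = mean replicate activation score at least 90 and every replicate individually at or above 90; inconclusive = only one of the two criteria met; inactive = neither criterion met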;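 note: higher luciferase means less miR-122 activity so hits act as miR-122 inhibitors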
The depositor's hits bear a star; ? = inconclusive; nt = no result; ! = repeats disagree; [ ] = remark or other dose. An excerpt weighted towards active compounds, which were near 1.3% of everything screened.

1: COc1cccc(NS(=O)(=O)c2ccc3c(c2)N(C(C)=O)CCO3)c1
2: CC(=O)N1CCOc2ccc(S(=O)(=O)Nc3cccc(C)c3)cc21
3: O=S(=O)(Nc1ccc2c(c1)OCCO2)c1ccc(F)c(F)c1
4: CC(=O)c1ccc(NS(=O)(=O)c2ccc3c(c2)N(C(C)=O)CCO3)cc1
5: Cc1ccc(S(=O)(=O)NCC(=O)OCCOc2ccc(Br)cc2)cc1
6: O=c1[nH]c(-c2ccc(-c3cccc(Cl)c3)o2)nc2ccccc12
7: Cc1ccc(Cl)cc1N1CCN(C(=O)c2noc(C)c2[N+](=O)[O-])CC1
8: COc1cc(C(=O)c2cc3c(cc2C)OCO3)cc(OC)c1OC
assay / compound | 1 | 2 | 3 | 4 | 5 | 6 | 7 | 8
UUG fidelity | -10 | nt | -10 | -10 | -2 | -21 | -4 | -4
EWS-Fli inh | -27 | nt | -6 | -3 | -1 | -88 | 70* | 58*
PglD inh | 3 | nt | -1 | 0 | 0 | 2 | 0 | 1
F508del corr | -3 | 2 | 0 | 0 | -2 | -3 | 1 | -1
LGR2 inh | 2 | 6 | 15 | 17 | -21 | -91 | 10 | -15
miR122 inh | 195* | 130* | -1 | nt | nt | -1 | nt | 47

9: COc1ccc(C(=O)N/C(=C\c2ccccc2)C(=O)Nc2ccccc2C(=O)O)cc1
10: Cc1noc(C)c1C(=O)NC(Cc1c[nH]c2ccccc12)C(=O)O (configuration not stated)
11: CCOC1=C/C(=C/c2c(N)n3nc(S(=O)(=O)CC)sc3nc2=O)C=CC1=O
12: CC(C)(C)c1ccc(/C=C/C(=O)c2ccc(NC3=NCCCS3)cc2)cc1
13: CCC1(c2ccccc2)NC(=O)N(CC(=O)Nc2cc(S(=O)(=O)N3CCCCC3)ccc2N(C)C)C1=O (configuration not stated)
14: CC(C)(C)OC(=O)NCc1ccc(CNC(=O)c2nc[nH]c2C(=O)NCc2ccccc2)cc1
15: CC(C)(C)OC(=O)NCc1ccc(CNC(=O)c2[nH]cnc2C(=O)NCC(=O)OCc2ccccc2)cc1
16: COc1ccc(S(=O)(=O)Nc2ccc3c(c2)C(=O)N([C@@H](C)CO)C[C@@H](C)[C@H](CN(C)Cc2ccc(Oc4ccccc4)cc2)O3)cc1
assay / compound | 9 | 10 | 11 | 12 | 13 | 14 | 15 | 16
UUG fidelity | nt | -17 | nt | nt | nt | -12 | 7 | 9
EWS-Fli inh | 8 | 7 | 9 | 18 | 1 | 21 | 6 | 28
PglD inh | nt | -2 | nt | nt | nt | 2 | 4 | -3
F508del corr | 0 | 3 | 9.9* | 8.3* | 0 | 1 | -1 | 10*
LGR2 inh | -1 | 1 | -12 | 26 | -19 | -5 | 82* | -14
miR122 inh | nt | 0 | nt | nt | 5 | -3 | -5 | 0[16.7 µM]

17: COc1ccc(S(=O)(=O)Nc2ccc3c(c2)C(=O)N([C@H](C)CO)C[C@@H](C)[C@@H](CN(C)Cc2ccc(Cl)c(Cl)c2)O3)cc1
18: C[C@H](CO)N1C[C@H](C)[C@H](CN(C)Cc2ccc(-c3ccccc3)cc2)Oc2ccc(NS(=O)(=O)c3ccc(Cl)cc3)cc2C1=O
19: C[C@@H]1CN([C@H](C)CO)C(=O)c2cc(NS(=O)(=O)c3ccc(Cl)cc3)ccc2O[C@@H]1CN(C)Cc1ccc(-c2ccccc2)cc1
20: COc1ccc(S(=O)(=O)Nc2ccc3c(c2)C(=O)N([C@H](C)CO)C[C@@H](C)[C@@H](CN(C)Cc2ccc(Oc4ccccc4)cc2)O3)cc1
21: Brc1c(CSc2nc3ccccc3o2)nc2ncccn12
22: O=C(O)c1ccccc1-c1c2cc(I)c(=O)c(I)c-2oc2c(I)c(O)c(I)cc12
23: O=Cc1ccc(-c2ccccc2C(=O)O)o1
24: COc1cc(C2c3[nH]c4ccccc4c3CC3COC(=O)N32)cc(OC)c1O (configuration not stated)
assay / compound | 17 | 18 | 19 | 20 | 21 | 22 | 23 | 24
UUG fidelity | 1 | -6 | 3 | 20 | -13 | -25 | nt | nt
EWS-Fli inh | 15 | 3 | 10 | 28 | nt | 6 | 2 | 64*
PglD inh | 0 | 3 | 2 | 1 | 3 | -4 | nt | nt
F508del corr | 13* | 3 | 9.4* | 7 | nt | 8.7*! | 1 | 1
LGR2 inh | 2 | 3 | 18 | 19 | nt | 22 | nt | -3
miR122 inh | -11[16.7 µM] | -11[16.7 µM] | -17[16.7 µM] | -3[16.7 µM] | 0 | -4 | nt | 12

25: COc1ccccc1N=C1NC(=O)/C(=C/c2ccc(N(C)C)cc2)S1
26: COc1cc(/C=C2/SC(=Nc3ccc(O)cc3)NC2=O)cc(OC)c1O
27: COc1cc(/C=C2\SC(=Nc3ccc(O)cc3)NC2=O)cc(OC)c1OC
28: C[C@H]1CCCCO[C@H](CN(C)S(=O)(=O)c2ccccc2)[C@@H](C)CN([C@@H](C)CO)C(=O)c2cc(NC(=O)Nc3cccc4ccccc34)ccc2O1
29: COc1cc(/C=C2/SC(=S)N(CC3CCCO3)C2=O)ccc1O (configuration not stated)
30: CCOC(=O)c1c(NC(=O)C(=O)N/N=C/c2ccccc2O)sc2c1CCCCC2
31: CCOC(=O)c1c(NC(=O)c2ccccc2N(C)S(=O)(=O)c2ccccc2)sc2c1CCCC2
32: CCOC(=O)c1c(NC(=O)C(NCCN(C)C)c2ccccc2)sc2c1CCCC2 (configuration not stated)
assay / compound | 25 | 26 | 27 | 28 | 29 | 30 | 31 | 32
UUG fidelity | -12 | nt | nt | -13 | -14 | -7 | -10 | -4
EWS-Fli inh | 9 | 23 | ? | 12 | nt | 18 | ? | 59*
PglD inh | 8 | nt | nt | 7 | -1 | -5 | -4 | -1
F508del corr | 15* | 15* | 4 | 3 | nt | 16* | nt | 1
LGR2 inh | -25 | 1 | 2 | 4 | 17 | 1 | nt | 3
miR122 inh | 11 | nt | nt | 8[16.7 µM] | -3 | -3 | 162* | -6

33: Cc1ccc(-c2noc(-c3cc(C(C)(C)C)nn3Cc3ccccc3)n2)cc1
34: CCOC(=O)C1CCCN(C(=O)CN2C(=O)NC(C)(c3ccc4ccccc4c3)C2=O)C1 (configuration not stated)
35: CN(CC(=O)Nc1cc(C(F)(F)F)ccc1-n1cncn1)Cc1nc2ccccc2c(=O)[nH]1
36: CCN(CC(=O)Nc1cc(Cl)ccc1-n1cncn1)Cc1nc2ccccc2c(=O)[nH]1
37: CC(=O)Nc1ccc2c(c1)C(=O)N(C)[C@H]1CC[C@@H](CC(=O)Nc3cn(C)nc3C)O[C@H]1CO2
38: c1ccc(-c2cn3c4c(sc3n2)CCCC4)cc1
39: CO[C@@H]1CN(C)C(=O)c2cc(NC(=O)NC3CCCCC3)ccc2OC[C@@H](C)N(C)C[C@@H]1C
40: O=C([C@@H]1[C@@H](CO)[C@@H]2Cn3c(ccc(-c4ccccc4)c3=O)[C@H]1N2Cc1cccnc1)N1CCOCC1
41: COC1=CC(=O)c2nc(Cl)ccc2C1=O
assay / compound | 33 | 34 | 35 | 36 | 37 | 38 | 39 | 40 | 41
UUG fidelity | -14 | 13 | 4 | -28 | -4 | -80 | -6 | nt | nt
EWS-Fli inh | 4 | 2 | 4 | 4 | 3 | 54* | 1 | 2 | 40
PglD inh | 7 | 4 | 1 | -3 | -2 | -2 | 0 | -3 | nt
F508del corr | -1 | -2 | -1 | 14* | 0 | 0 | 1 | nt | -5
LGR2 inh | -10 | -5 | -11 | -2 | -2 | 74* | -7 | -14 | 80*
miR122 inh | 0 | -4 | -4 | -8 | -5[16.7 µM] | 18 | nt | nt | nt
